## Binding of CDR-mutated scFvs to a peptide of the spike HR2 region

From the AlphaSeq antibody data of Engelhart et al. 2022 (doi:10.1038/s41597-022-01779-4), copy in the FLAb collection.

Antigen: PDVDLGDISGINAS, a 14-residue peptide of the SARS-CoV-2 spike HR2 region.

Ab-14 is the parent antibody, in scFv form: VH, then a (GGGGS)3 linker, then VL. The light chain is unchanged in all variants.
VH: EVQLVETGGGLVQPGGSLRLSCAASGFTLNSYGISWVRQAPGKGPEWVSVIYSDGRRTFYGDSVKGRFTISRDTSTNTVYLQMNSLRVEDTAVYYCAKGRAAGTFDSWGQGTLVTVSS
VL: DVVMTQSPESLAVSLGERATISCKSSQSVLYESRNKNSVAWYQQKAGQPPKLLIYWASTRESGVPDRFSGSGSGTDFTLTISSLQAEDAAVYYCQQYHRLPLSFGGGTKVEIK

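Phage display of a naive human antibody library on the peptide gave the parent. Library AAYL49 holds single substitutions and randomly drawn double and triple substitutions in the CDRs. AlphaSeq pools MATa yeast showing the antibodies with MATalpha yeast showing the peptide. Pairs that bind mate more often; barcode pairs of the diploids are counted by sequencing. Each replicate has its own calibration line, from reference interactions of the BCL2 family. Each pool was mated in three replicate cultures.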

Substitutions are numbered in sequence along the VH above, starting at 1 (not Kabat). Values are log10 of the apparent Kd in nM; lower means stronger binding. Replicates are averaged; those with no signal do not enter the mean. "nd" marks a missing value. The strain was present, yet no cells mated with the target were sequenced in that replicate, which points to weak or no binding. Parent in this assay: reference entry 0.65, copy in this library 4.11 (one replicate of three).

changes,log10 Kd (nM) by replicate,"log10 Kd (nM), mean",control signals
Y60N+A102I,nd nd 4.69,4.69,1/9 (4.24)
N30M+Y52A+R100N,3.24 2.97 3.52,3.25,2/9 (3.94)
G26L+F59G+D106Y,nd nd nd,nd,1/9 (2.92)
I34H+S35Q+R56Y,nd 3.48 nd,3.48,1/9 (3.16)
R57Y+G99R+G103K,nd nd nd,nd,0/9
G33Q+Y52N,nd nd nd,nd,1/9 (1.98)
Y52T+G55Q+F105L,nd nd nd,nd,1/9 (3.34)
F59M+K65I+A101C,2.72 1.86 2.09,2.22,1/9 (2.89)
R100Q+F105D+S107C,4.81 4.79 nd,4.80,1/9 (4.78)
S31W+G33L+I34F,5.83 3.90 5.59,5.11,5/9 (4.95)
Y32R+G55Q+A102H,nd nd nd,nd,0/9
R57Q+T58A+V64R,nd nd nd,nd,1/9 (3.31)
F27C+N30R+I34P,nd 4.02 3.98,4.00,5/9 (3.73)
Y32E+A102G+T104K,2.74 2.89 3.08,2.91,2/9 (4.41)
A102C+T104V+S107C,0.71 0.93 0.97,0.87,2/9 (3.36)
G33N+R100T+D106E,nd nd nd,nd,0/9
D62H+A101L+A102N,4.65 nd 4.18,4.42,0/9
N30E+T58G+A101D,2.68 3.48 4.60,3.58,2/9 (4.39)
G33E+G103N,nd 4.45 nd,4.45,1/9 (3.84)
G33I+G55F+T58K,5.34 5.83 4.18,5.12,4/9 (4.97)
F59Q,0.96 1.16 1.34,1.15,2/9 (3.46)
D62N+S63C+G99C,6.07 nd 3.67,4.87,6/9 (4.00)
F27D+G33Q+V64L,nd nd nd,nd,0/9
G33N+V50M+D54N,nd nd 3.53,3.53,2/9 (3.65)
R56G+V64P+G103Y,nd nd nd,nd,0/9
T28G+S53N+D62M,3.25 nd 3.73,3.49,0/9
G26F+G99T+F105A,3.48 4.53 nd,4.00,5/9 (4.41)
N30S+R56F+F105Q,nd 4.78 5.33,5.05,6/9 (4.46)
S31V+I51T+F105E,6.14 nd 4.65,5.40,4/9 (4.33)
T58L+A101Q+T104Y,nd nd nd,nd,1/9 (2.85)
G26W+T28W+R56N,nd nd nd,nd,0/9
I34M+R56Q+Y60Q,5.96 nd nd,5.96,4/9 (3.78)
F27E+N30M+Y32C,nd 4.70 nd,4.70,0/9
N30D+G33R+G99A,nd 4.05 nd,4.05,5/9 (4.27)
D54L+R56C+R57N,nd nd nd,nd,2/9 (3.47)
F27T+I51D+Y60D,nd nd nd,nd,1/9 (2.18)

For reference, 3 entries of the list once more:

changes,log10 Kd (nM) by replicate,"log10 Kd (nM), mean",control signals
I34H+S35Q+R56Y,nd 3.48 nd,3.48,1/9 (3.16)
N30S+R56F+F105Q,nd 4.78 5.33,5.05,6/9 (4.46)
I34M+R56Q+Y60Q,5.96 nd nd,5.96,4/9 (3.78)

As a blank, each scFv also met three strains without target: over library AAYL49, 15% of these pairings were detected, typically at 4.06 and seldom below 2.83. Also given: how often the same scFv was detected with the empty control strains, with their mean in brackets.